Eight compounds from patent US8044236B2, “Carboxilic acid derivatives” (Institute of Medicinal Molecular Design, Inc., priority 2006, dated 2011) can be followed below.

Chains of the proteins cited; added tags and fusions are not shown. Residues count along the entry.
UniProt P05121, 24-402: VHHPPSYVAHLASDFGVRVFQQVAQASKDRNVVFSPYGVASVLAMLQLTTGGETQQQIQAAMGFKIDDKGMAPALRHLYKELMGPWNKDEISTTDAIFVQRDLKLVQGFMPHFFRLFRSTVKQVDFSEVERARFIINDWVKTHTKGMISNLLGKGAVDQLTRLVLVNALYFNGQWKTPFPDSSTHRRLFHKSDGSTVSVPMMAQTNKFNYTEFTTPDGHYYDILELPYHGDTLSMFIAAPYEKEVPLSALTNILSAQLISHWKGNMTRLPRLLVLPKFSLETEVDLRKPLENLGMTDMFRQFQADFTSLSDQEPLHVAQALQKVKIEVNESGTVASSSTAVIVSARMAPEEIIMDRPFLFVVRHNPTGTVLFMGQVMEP

For one experiment, the target named is T1, recombinant rat PAI-1 (Rattus norvegicus, UniProt P20961).
T1 sequence (P20961 24-402): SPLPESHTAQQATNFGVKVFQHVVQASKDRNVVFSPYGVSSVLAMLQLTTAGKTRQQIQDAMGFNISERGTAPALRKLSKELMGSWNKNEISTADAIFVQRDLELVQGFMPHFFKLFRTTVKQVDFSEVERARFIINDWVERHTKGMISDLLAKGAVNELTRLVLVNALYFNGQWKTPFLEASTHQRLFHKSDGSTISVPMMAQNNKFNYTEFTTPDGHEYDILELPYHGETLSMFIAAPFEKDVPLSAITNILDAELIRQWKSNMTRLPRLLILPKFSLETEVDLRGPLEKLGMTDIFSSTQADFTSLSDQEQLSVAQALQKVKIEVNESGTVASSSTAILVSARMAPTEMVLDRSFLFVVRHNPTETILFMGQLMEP
Briefly: biochemical.
Settings: not given
Here is the method:
(§1) • 0.1 M HEPES • 0.1 M NaCl • […] • 0.1% Polyethylene glycol 8,000 (Hampton Research Corporation) • 2 mM Dimethyldecylphoshine oxide [Apo-10] (Fluka Corporation) [Results]
For orientation: IC50 means the concentration that inhibits the measured activity by half. In the case of `CCCCc1ccc(COc2ccc(-c3ccc(OC(F)(F)F)cc3)cc2CCC(=O)O)cc1` [Compound 35, 3-[4-(4-butylbenzyloxy)-4′-(trifluoromethoxy)biphenyl-3-yl]propanoic acid], the IC50 turned out to be 3.31 µM.

The target in another experiment is T2, recombinant human PAI-1 (Homo sapiens, UniProt P05121). Nature of the experiment: Test Example 1: human PAI-1 inhibitory activity (tPA fluorogenic substrate, pH7.5 Tris buffer). It counts as biochemical. On the set-up: purchased Molecular Innovations, Inc. As to conditions: pH 7.5, read-out: Inhibition Rate of Human PAI-1 Activity (%).
One may read the inhibition as how much of the control response was suppressed. Take `O=C(O)/C=C/c1cc(-c2ccccc2[N+](=O)[O-])ccc1OCc1ccccc1` [Compound 7, (E)-3-(4-benzyloxy-2′-nitrobiphenyl-3-yl)propenoic acid]: the inhibition at 5 µM is 14% and the inhibition at 10 µM amounted to 21%.
Turning to `O=C(O)/C=C/c1cc(-c2ccc(OC(F)(F)F)cc2)ccc1OCc1ccc(Cl)cc1` [Compound 19, (E)-3-[4-(4-chlorobenzyloxy)-4′-(trifluoromethoxy)biphenyl-3-yl]propenoic acid], the inhibition at 5 µM was 36%, the inhibition at 10 µM was 65% and the inhibition at 25 µM turned out to be 92%.
For the compound `O=C(O)CCc1cc(-c2ccc(OC(F)(F)F)cc2)ccc1OCc1ccc(Cl)cc1` [Compound 20, 3-[4-(4-chlorobenzyloxy)-4′-(trifluoromethoxy)biphenyl-3-yl]propanoic acid], the inhibition at 10 µM was 13% and the inhibition at 25 µM came to 77%.
Take `Cc1ccc(-c2ccc(OCc3ccc(C(C)(C)C)cc3)c(/C=C/C(=O)O)c2)cc1` [Compound 46, (E)-3-{4-[4-(tert-butyl)benzyloxy]-4′-methylbiphenyl-3-yl}propenoic acid]: the inhibition at 5 µM worked out at 25%, the inhibition at 10 µM turned out to be 56% and the inhibition at 25 µM came to 91%.
Take `Cc1ccc(-c2ccc(OCc3ccc(C(C)(C)C)cc3)c(CCC(=O)O)c2)cc1` [Compound 47, 3-{4-[4-(tert-butyl)benzyloxy]-4′-methylbiphenyl-3-yl}propanoic acid]: the inhibition at 5 µM was determined as 27%, the inhibition at 10 µM amounted to 59% and the inhibition at 25 µM is 97%.
Take `O=C(O)/C=C/c1cc(-c2ccccc2)ccc1OCc1ccccc1` [Compound 50, (E)-3-(4-benzyloxybiphenyl-3-yl)propenoic acid]: the inhibition at 10 µM stood at 15% and the inhibition at 25 µM is 31%.
Take `CC(C)(C)c1ccc(COc2ccc(-c3ccc(Cl)cc3)cc2CCC(=O)O)cc1` [Compound 55, 3-{4-[4-(tert-butyl)benzyloxy]-4′-chlorobiphenyl-3-yl}propanoic acid]: the inhibition at 5 µM is 23%, the inhibition at 10 µM is 56% and the inhibition at 25 µM is 96%.

The next experiment concerns the target T2, recombinant human PAI-1. Nature of the experiment: biochemical.
Settings: not given
Here is the method:
<Compotion of pH7.4 HEPES Buffer>
as §1
As for `CCCCc1ccc(COc2ccc(-c3ccc(OC(F)(F)F)cc3)cc2CCC(=O)O)cc1` [Compound 35, 3-[4-(4-butylbenzyloxy)-4′-(trifluoromethoxy)biphenyl-3-yl]propanoic acid], the IC50 worked out at 1.41 µM.
